Results taken from PubChem BioAssay AID573 (SRMLSC, 2007).
The list shows a part of the results, in another mix than the full data. Some results for these compounds are left out of this collection, so the calls shown say nothing about other tests. Calls of active or inactive are those of the source.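 Rule for the calls: active = growth inhibition at or above a cutoff equal to the mean over every tested compound plus 3 SD (cut at about 60% in these data); inactive = the rest.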

Test: E. coli ΔtolC antibacterial growth inhibition – strain BW25113 ΔtolC::kan, 384-well, primary screen (AID 573)
Conditions: E. coli BW25113 tolC mutant growth, OD615; stronger effect = higher value; screened at 10 µM (by protocol)
How it was run: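 Doses: one dose of 10 µM final / Material: E. coli BW25113 ΔtolC::kan, tolC deletion mutant strain / Buffer or medium: LB with kanamycin 50 µg/mL / Evaluation: percent growth inhibition / Detection: optical density read at 615 nm / Incubation: 37 °C, 20 h exposure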
For O=C(OC1CN2CCC1CC2)C(CO)(c1ccccc1)c1ccccc1 (configuration not stated), the growth inhibition was inactive: -21.1%.
In the case of CN(C)c1cccc(C(=O)NCC2(N(C)C)CCCCC2)c1, the growth inhibition is reported as inactive: -12.6%.
